Laboratory results from paper PMC7591920 (Nature Communications, 2020).

Key:
GST-hTEAD1(209-426) [1] = biological target: T1, GST-hTEAD1(209-426) (human, UniProt P28347 209-426); test: SPR; GST-hTEAD1 or mTEAD4 amine-coupled to a CM5 chip (10 mM MES pH 6.4), peptides as analytes; 10 mM HEPES, 150 mM NaCl, 0.05% Tween-20, pH 7.4, 20 °C, 30 µL/min; steady-state fit, 1:1 model; conditions: both partners purified
T1 construct: A 3C protease site stands between tags and protein; also called human TEAD1; source: E. coli BL21 DE3 RIL, purified (His Trap, SEC); not shown: GST, N-terminal, kept

GST-hTEAD1(209-426) [2] = biological target: T1, GST-hTEAD1(209-426); test: fluorescence polarisation; direct: FITC-labelled peptide (10 nM) titrated with hTEAD1 or mTEAD4; 10 mM HEPES, 150 mM NaCl, 0.1% Tween-20, pH 7.4; read after 1 h; conditions: both partners purified

B1: YAP(50-100) (peptide, UniProt P46937 50-100, looked up)
peptide: AGHQIVHVRGDSETDLEALFNAVMNPKTANVPQTVPMRLRKLPDSFFKPPE
notes: yes-associated protein YAP, residues 50-100
Kd (GST-hTEAD1(209-426) [1]): 1800 nM

B2: FITC-labelled YAP(50-100) (peptide, UniProt P46937 50-100, looked up)
peptide: B1 peptide
modifications: FITC label
notes: yes-associated protein YAP, residues 50-100; also called FITC-YAP
Kd (GST-hTEAD1(209-426) [2]): 15.5 ± 1.4 nM
